These results are taken from patent US6730699B2, “Water soluble paclitaxel derivatives” (priority 2001, dated 2004).

Assay in data set [1]: not given
The source holds these as a separate data set.

The conditions of data set [2]: buffer, pH 9.3.
The conditions of data set [3]: single dose intravenous injection, mice.
The conditions of data set [4]: sodium salt of DTPA-paclitaxel.
Assay in data set [5]: not given
The source holds these as a separate data set.

Read-outs that look alike come from different tables or passages of the source.

Take Poly-Glutamic Acid-Paclitaxel [PG-TXL]: for the setting “within 48 h after injection”, the “radioactivity recovered as radioactive paclitaxel” value is listed as “less than 1%”. Further, the “radioactivity recovered as [^3H]paclitaxel in plasma” value (within 144 h after injection) is “less than 0.1%”. Further, the hydrolytic stability entry in data set [1] (PBS at various pH) is listed as “more stable in acidic solution than in basic solution”. Besides, in data set [1] (PBS pH 7.4, 37° C., 3 days), the paclitaxel released entry is on record as “about 10%”.
Regarding “diethylenetriaminepentaacetic acid-paclitaxel [DTPA-paclitaxel]”, the half-life (as a rule, the time needed for the level to fall by half in the phase considered) in data set [2] is “about 16 days”. In addition, the “LD50 (50% lethal dose)” value in data set [3] was “about 110 mg/kg body weight”. For the same substance, the solubility in data set [4] is recorded as > 20 mg equivalent paclitaxel/ml.
In turn, “polyethylene glycol-paclitaxel [PEG-paclitaxel]” had a half life in data set [5] (phosphate buffer pH 7.4, 37° C.) of 54 min. This substance also displayed a half-life in data set [5] (phosphate buffer pH 9.0, 37° C.) of 7.6 min.
